{"source": "patent US20090326004A1", "about": "“MUSCARINIC RECEPTOR ANTAGONISTS” (published 2009)", "test_system": "guinea pig trachea", "experiment": "In-vitro functional assay, guinea pig trachea contracted with carbachol", "conditions": "isolated tissue, carbachol as agonist", "data": [{"compound": "CCCC[N+]12CCC(CC1)[C@@H](OC(=O)C(O)(c1cccs1)C1CCC(F)(F)C1)C2.[Br-]", "note": "(stereo partly shown)", "values": [{"measurement": "pKb", "result": "about 9.5"}]}]}
